This experiment has as its target T1, Solute carrier family 22 member 1 (Homo sapiens, UniProt O15245).
T1 sequence (O15245 whole entry): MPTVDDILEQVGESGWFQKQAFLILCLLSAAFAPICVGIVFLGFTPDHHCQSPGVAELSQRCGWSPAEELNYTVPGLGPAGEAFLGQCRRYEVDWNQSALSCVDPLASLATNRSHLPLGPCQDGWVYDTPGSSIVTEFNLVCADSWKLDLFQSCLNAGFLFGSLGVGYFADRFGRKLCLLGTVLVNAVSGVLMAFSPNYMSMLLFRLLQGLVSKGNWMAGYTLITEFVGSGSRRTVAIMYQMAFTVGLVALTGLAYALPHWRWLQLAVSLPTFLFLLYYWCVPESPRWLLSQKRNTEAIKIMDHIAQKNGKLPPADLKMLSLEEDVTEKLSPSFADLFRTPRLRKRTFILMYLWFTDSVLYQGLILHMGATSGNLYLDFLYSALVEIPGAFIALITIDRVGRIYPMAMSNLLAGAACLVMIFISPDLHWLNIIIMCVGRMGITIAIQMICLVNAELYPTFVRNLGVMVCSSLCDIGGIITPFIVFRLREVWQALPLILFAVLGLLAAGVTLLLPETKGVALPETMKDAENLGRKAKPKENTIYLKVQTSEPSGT
Format: cell-based. As to conditions: hek293.

Take FLUPENTIXOL: inhibition was half-maximal at 89.5 µM (IC50).

For the origin of these results see ChEMBL document CHEMBL1140113, “Structural requirements for drug inhibition of the liver specific human organic cation transport protein 1” (J Med Chem, 2008).
